Experimental data taken from ChEMBL document CHEMBL2440090, “Discovery of pyrazolo[1,5-a]pyrimidine-based Pim inhibitors: a template-based approach” (Bioorg Med Chem Lett, 2013).
Calls of active or inactive are those of the source. The calls are words filed in the database; no cut-off is given here.

Chains of the proteins cited; added tags and fusions are not shown.
UniProt P11309, whole entry, looked up: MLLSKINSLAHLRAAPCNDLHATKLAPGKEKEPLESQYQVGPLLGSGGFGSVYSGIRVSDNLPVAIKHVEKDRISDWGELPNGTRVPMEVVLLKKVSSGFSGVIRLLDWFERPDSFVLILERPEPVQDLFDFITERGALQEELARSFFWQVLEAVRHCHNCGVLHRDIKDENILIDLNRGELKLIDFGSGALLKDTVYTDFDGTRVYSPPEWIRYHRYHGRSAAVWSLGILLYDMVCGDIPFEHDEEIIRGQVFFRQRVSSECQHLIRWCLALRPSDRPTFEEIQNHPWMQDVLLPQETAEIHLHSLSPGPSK

Target: Serine/threonine-protein kinase pim-1 (Homo sapiens, UniProt P11309)
Assay: Inhibition of Pim1 (unknown origin) using STK3 as substrate preincubated for 30 mins followed by substrate and ATP addition at > 5000 nM after 45 mins by HTRF assay

c1ccc2cc(-c3cnn4ccc(NC5CCCCC5)nc34)ccc2c1
inhibition: inactive

NCCNc1ccn2ncc(-c3cccc(-c4ncc[nH]4)c3)c2n1
inhibition: inactive
